Here are results for 1 molecule from ChEMBL document CHEMBL5380877, “Azulene as a biphenyl mimetic in orexin/hypocretin receptor agonists” (Bioorg Med Chem, 2023).

The chains behind the UniProt entries cited, without tags or fusion partners.
UniProt O43613, whole entry: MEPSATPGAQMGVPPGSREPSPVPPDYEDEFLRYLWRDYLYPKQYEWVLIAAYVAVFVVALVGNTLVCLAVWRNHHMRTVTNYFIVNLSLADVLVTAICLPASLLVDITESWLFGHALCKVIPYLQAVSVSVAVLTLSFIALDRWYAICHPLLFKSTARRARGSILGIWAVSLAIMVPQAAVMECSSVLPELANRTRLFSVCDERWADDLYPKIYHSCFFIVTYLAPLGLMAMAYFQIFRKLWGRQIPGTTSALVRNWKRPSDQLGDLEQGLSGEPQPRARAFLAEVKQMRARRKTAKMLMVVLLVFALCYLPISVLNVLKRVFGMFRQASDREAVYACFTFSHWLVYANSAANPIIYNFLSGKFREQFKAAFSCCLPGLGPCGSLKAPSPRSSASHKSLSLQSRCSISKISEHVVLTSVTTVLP

Usually EC50 stands for the concentration that produces a half-maximal response.

This experiment addresses Orexin/Hypocretin receptor type 1 (Homo sapiens, UniProt O43613). The experiment is described as follows: Agonist activity at human OX1 receptor expressed in CHO cells assessed as increase in Ca2+ accumulation level measured after 24 hrs by FLIPR calcium 4 assay. It counts as functional, cell-based.

SMILES strings stand for the structures.

`COc1ccc(-c2cccc(C(=O)N(C)C)c2)cc1S(=O)(=O)Nc1cccc(NCCNC(=O)c2cccc(C)c2)c1`: the EC50 was 219 nM.
